Experimental data: patent US20040047835A1, “Combinatorial drug therapy using polymer drug conjugates” (priority 2002, published 2004)

Legend:
mice = details: single dose intravenous (iv) injection
[1] = in vivo; cited from earlier work
[2] = conjugate versus free drug; cited from earlier work

| Substance | LD50 (50% lethal dose) (mice) | accumulation / distribution in the tumor [1] | solubility [2] |
| --- | --- | --- | --- |
| DTPA-paclitaxel | about 110 mg/kg body weight |  |  |
| poly(L-glutamic acid)-paclitaxel [PG-TXL] |  | increased accumulation in the tumor | increased water solubility |
